Measured values published in patent US9896445B2, “Heterocyclic inhibitors of ERK1 and ERK2 and their use in the treatment of cancer” (Asana Biosciences, LLC, priority 2015, dated 2018).

By UniProt entry, the sequences of proteins in these tests, tags left out.
UniProt P28482, whole entry: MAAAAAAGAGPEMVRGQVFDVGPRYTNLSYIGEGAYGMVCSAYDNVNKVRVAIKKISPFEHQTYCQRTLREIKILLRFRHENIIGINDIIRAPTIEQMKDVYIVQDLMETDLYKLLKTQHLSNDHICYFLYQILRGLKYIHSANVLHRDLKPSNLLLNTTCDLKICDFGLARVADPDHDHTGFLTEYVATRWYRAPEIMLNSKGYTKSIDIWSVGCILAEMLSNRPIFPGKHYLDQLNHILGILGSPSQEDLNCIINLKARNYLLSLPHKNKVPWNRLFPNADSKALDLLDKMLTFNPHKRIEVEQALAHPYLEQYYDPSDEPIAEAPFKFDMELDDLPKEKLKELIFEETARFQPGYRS
UniProt P27361, whole entry: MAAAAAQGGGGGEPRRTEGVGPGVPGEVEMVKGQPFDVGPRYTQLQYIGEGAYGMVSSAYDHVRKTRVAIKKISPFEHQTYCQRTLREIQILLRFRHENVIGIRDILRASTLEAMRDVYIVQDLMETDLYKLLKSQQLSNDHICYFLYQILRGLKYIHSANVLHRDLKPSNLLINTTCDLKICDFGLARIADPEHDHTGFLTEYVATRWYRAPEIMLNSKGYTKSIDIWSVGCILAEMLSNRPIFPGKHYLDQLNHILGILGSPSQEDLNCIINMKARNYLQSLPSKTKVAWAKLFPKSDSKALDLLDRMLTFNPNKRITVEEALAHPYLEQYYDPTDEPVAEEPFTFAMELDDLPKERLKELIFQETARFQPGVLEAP

What was measured:
ERK2 = ERK2 (Homo sapiens, UniProt P28482); assay: ERK2 HTRF (biochemical) assay; settings: read-out: Biochemical Assay ERK2 IC50
ERK1 = ERK1 (Homo sapiens, UniProt P27361); assay: ERK1 HTRF (biochemical) assay; settings: read-out: Biochemical Assay ERK1 IC50

## Cc1cnc(Nc2ccc(Oc3ccccc3)cc2)nc1-n1cnc(C(=O)NC(CO)c2cccc(Cl)c2)c1 (centres unmarked)
ERK2
  pIC50: 6.30 to 7.00
ERK1
  pIC50: 5.60 to 6.30

pIC50: −log10 of the molar value.
